Data from ChEMBL document CHEMBL3627660, “Tetrafluorophenoxymethyl ketone cruzain inhibitors with improved pharmacokinetic properties as therapeutic leads for Chagas' disease” (Bioorg Med Chem Lett, 2015).

Amino acid sequences for entries named in this document (tags omitted). A change or cut given only in a name is not applied to a line headed by its entry.
UniProt P25779: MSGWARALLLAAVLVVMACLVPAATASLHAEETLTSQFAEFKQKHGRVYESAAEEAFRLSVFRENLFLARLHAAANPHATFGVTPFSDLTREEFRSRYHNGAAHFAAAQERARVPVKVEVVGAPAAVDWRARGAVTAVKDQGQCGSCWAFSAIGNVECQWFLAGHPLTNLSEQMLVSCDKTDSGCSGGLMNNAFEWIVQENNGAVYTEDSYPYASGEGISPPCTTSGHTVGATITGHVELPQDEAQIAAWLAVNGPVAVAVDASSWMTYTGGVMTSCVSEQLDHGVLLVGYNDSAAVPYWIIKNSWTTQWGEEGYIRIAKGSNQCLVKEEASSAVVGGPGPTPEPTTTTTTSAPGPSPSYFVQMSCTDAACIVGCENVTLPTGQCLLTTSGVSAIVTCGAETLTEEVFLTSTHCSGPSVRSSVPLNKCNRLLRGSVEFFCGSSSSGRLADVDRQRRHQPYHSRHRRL

Biological target: Cruzipain (Trypanosoma cruzi, UniProt P25779)
Experiment: Inhibition of Trypanosoma cruzi recombinant cruzain using Z-FR-AMC as substrate after 5 mins by fluorescence assay

Compound CCCCC(C(=O)COc1c(F)c(F)cc(F)c1F)n1cc([C@@](C)(NCc2ccc3ncccc3c2)C(C)C)nn1 (stereo partly specified) has an IC50 of 370 nM.
